Reference: publication PMC5708365, “Histone lysine methyltransferase structure activity relationships that allow for segregation of G9a inhibition and anti-Plasmodium activity” (MedChemComm, 2017)

Legend:
[1] = target: T1, G9a (Homo sapiens, UniProt Q96KQ7); settings: read-out: G9a IC50; ECSD assay; cited from earlier work
T1 sequence (Q96KQ7 1-1210): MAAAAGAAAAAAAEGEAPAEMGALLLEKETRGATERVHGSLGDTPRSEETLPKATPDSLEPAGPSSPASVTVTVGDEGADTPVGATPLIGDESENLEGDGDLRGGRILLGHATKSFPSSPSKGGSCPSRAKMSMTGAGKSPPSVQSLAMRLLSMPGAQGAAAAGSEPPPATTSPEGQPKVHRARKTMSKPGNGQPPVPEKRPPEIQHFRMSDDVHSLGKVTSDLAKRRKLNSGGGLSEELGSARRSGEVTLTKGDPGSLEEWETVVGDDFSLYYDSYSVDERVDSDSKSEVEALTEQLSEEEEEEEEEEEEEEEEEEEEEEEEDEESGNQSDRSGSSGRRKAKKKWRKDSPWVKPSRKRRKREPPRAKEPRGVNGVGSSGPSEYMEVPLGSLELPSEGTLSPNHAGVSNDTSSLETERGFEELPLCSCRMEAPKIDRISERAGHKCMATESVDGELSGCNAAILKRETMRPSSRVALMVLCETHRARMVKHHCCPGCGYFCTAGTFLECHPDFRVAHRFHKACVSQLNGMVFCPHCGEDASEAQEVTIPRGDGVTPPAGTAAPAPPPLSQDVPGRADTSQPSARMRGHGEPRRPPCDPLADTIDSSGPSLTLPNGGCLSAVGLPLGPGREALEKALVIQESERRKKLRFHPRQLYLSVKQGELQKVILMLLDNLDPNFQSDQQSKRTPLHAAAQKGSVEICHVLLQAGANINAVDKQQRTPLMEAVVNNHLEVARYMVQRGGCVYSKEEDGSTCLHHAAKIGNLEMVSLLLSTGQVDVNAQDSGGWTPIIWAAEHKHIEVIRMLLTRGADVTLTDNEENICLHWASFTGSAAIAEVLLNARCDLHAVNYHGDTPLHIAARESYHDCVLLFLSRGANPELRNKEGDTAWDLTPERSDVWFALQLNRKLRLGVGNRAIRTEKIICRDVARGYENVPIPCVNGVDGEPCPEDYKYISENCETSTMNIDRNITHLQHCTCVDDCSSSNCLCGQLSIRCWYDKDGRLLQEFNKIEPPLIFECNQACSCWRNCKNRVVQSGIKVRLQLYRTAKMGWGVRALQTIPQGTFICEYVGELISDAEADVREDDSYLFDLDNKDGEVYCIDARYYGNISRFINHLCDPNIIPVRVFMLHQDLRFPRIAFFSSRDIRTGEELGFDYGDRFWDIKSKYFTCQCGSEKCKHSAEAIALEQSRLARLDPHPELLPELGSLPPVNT

[2] = target: T1, G9a; settings: read-out: G9a IC50; CLOT assay; cited from earlier work
[3] = target: T1, G9a; settings: read-out: G9a IC50; SPA, 5 nM G9a, H3 1-25 peptide 0.8 μM, 3H-SAM 8 μM

Row | IC50 [3] | SMILES | IC50 [1] | IC50 [2]
1 |  | COc1cc2c(NC3CCN(C)CC3)nc(N3CCCN(C)CC3)nc2cc1OCCCN(C)C [compound 66, reference compound] | 43 nM | 57 nM
2 | 185 nM | COc1cc2nc(N3CCC(OC)CC3)nc(NC3CCN(CC4CCCCC4)CC3)c2cc1OC [compound 47] |  | 
3 | 49 nM | COc1cc2nc(N3CCN(C)CC3)nc(NC3CCN(C4CCCCC4)CC3)c2cc1OC [compound 49] |  | 

Like-named read-outs stand apart in the source and are kept apart here.
